Experimental data as given in patent publication US11786497B2, “High penetration prodrug compositions of retinoids and retinoids-related compounds” (Techfields Pharma Co., Ltd., priority 2007, dated 2023).

Test system: human colon cancer cells (LS174J)
Assay: Anti-colon cancer activity, subcutaneous xenograft in nude mice
[1] = 10 mg/kg per day, transdermally, n=7

| SMILES | Life Elongation Rate (10 mg/kg per day, transdermally, control = 100) [%] | Tumor size at day 40 [1] [mm^3] | Tumor size at day 10 (10 days after implantation (baseline size of the group)) [mm^3] | Survival Period [1] [days] |
| --- | --- | --- | --- | --- |
| C=C(c1ccc(C(=O)OCN2CCCC2)cc1)c1cc2c(cc1C)C(C)(C)CCC2(C)C.Cl | 209 | 487 ± 61 | 56 ± 1 |  |
| Br.CC1=C(/C=C/C(C)=C\C=C\C(C)=C\C(=O)OCC2CCCN2)C(C)(C)CCC1 (stereo not drawn) [9-cis-retinoic acid 2-pyrrolidinemethyl ester·HBr] |  |  |  | 81.5 ± 5.7 |
| Br.CC1=C(/C=C/C(C)=C/C=C/C(C)=C/C(=O)OCCN2CCCCC2)C(C)(C)CCC1 |  |  |  | 85.7 ± 7.6 |
